These are literature values, as cited in patent US8986701B2, “Enzyme prodrug cancer therapy selectively targeted to tumor vasculature and methods of production and use thereof” (The Board of Regents of the University of Oklahoma, priority 2003, dated 2015).

For data set [1], the system named is human brain tumor xenografts. The following applies: cited from earlier work.
For data set [2] the following is noted: guinea pigs; cited from earlier work.

Turning to “L-methionine-α-deamino-γ-mercaptomethane-lyase [L-methioninase]”, in data set [1], the “toxicity in the mice” value is on record as “no toxicity”. For the same substance, in data set [2], the “immune response after injection” value was “shock and death”.
